Laboratory results published in patent publication US10993448B2, “Method for sanitizing fresh produce” (Dole Fresh Vegetables, Inc., priority 2014, dated 2021).

Test system: Non-selective mix
Test: Suspension tests, non-selective agar
Format: cell-based, E. coli O157:H7, sv. Typhimurium, and Listeria monocytogenes
Details: for % bacteria killed: listed as 40 ppm chlorine; for Average log reduction: vs water control

With chlorine the “Average (bacterial load)” value (30 seconds at 4° C., Water 1.00 × 10^7) was 3.25 × 10^3, the “% bacteria killed” value (30 seconds at 4° C.) was 99.968% and the Average log reduction (30 seconds at 4° C.) was 3.49. The “Average (bacterial load)” value (30 seconds at 15° C., Water 8.46 × 10^6) was 4.00 × 10^0, the “% bacteria killed” value (30 seconds at 15° C.) was 100% and the Average log reduction (30 seconds at 15° C.) was 6.33. The “Average (bacterial load)” value (30 seconds at 40° C., Water 8.30 × 10^6) was 2.00 × 10^0, the “% bacteria killed” value (30 seconds at 40° C.) was 100% and the Average log reduction (30 seconds at 40° C.) was 6.62. For the same substance, the “Average (bacterial load)” value (90 seconds at 4° C., Water 6.22 × 10^6) was 2.50 × 10^2, the “% bacteria killed” value (90 seconds at 4° C.) was 99.996% and the Average log reduction (90 seconds at 4° C.) was 4.40. For the same substance, the “Average (bacterial load)” value (90 seconds at 15° C., Water 1.21 × 10^7) was 8.00 × 10^0, the “% bacteria killed” value (90 seconds at 15° C.) was 100% and the Average log reduction (90 seconds at 15° C.) was 6.18. For the same substance, the “Average (bacterial load)” value (90 seconds at 40° C., Water 9.76 × 10^6) was 1.60 × 10^1, the “% bacteria killed” value (90 seconds at 40° C.) was 100% and the Average log reduction (90 seconds at 40° C.) was 5.79.
